Data from patent US7521528B2, “Conformationally constrained parathyroid hormone (PTH) analogs with lactam bridges” (The General Hospital Corporation, priority 2003, dated 2009).

Tests used:
Type in all cases: cell-based
[1] = target: T1, P1R-DelNt (truncated human P1R deleted for residues 24-181) (Homo sapiens, UniProt Q03431); experiment: cAMP stimulation in COS-7 cells transiently transfected with P1R-DelNt; settings: at 1×10^−5, percent of maximum response of PTH(1-34) on P1R-WT
T1 construct: expressed in transfected cells; host or cells: COS-7 (transient transfection, FuGENE 6)
T1 sequence (Q03431 with tags, fused parts or gaps limits assumed): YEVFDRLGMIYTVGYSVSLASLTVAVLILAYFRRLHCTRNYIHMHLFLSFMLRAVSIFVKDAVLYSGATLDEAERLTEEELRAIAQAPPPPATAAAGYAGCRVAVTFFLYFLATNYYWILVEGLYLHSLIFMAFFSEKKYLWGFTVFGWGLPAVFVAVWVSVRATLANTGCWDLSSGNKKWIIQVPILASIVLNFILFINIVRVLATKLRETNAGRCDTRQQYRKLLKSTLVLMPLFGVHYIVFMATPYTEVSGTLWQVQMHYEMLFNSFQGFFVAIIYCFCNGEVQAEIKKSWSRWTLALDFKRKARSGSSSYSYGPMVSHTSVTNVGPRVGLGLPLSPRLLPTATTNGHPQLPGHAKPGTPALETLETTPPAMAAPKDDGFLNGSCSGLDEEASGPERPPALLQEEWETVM
Experimental: (§1) Cell Culture. The cell line HKRK-B28 (Takasu, H., et al., J. Bone Miner. Res. 14:11-20 (1999)) was derived from the porcine kidney cell line, LLC-PK1 by stable transfection with plasmid DNA encoding the full-length P1R and expresses ˜280,000 receptors per cell. These cells, as well as COS-7 cells and SaOS-2-B10 cells, were cultured at […] in T-75 flasks ([…]) in Dulbecco's modified Eagle's medium (DMEM) supplemented with fetal bovine serum (10%), penicillin G (20 units/ml), streptomycin sulfate (20 μg/ml) and amphotericin B (0.05 μg/ml) in a humidified atmosphere containing 5% CO2. Stock solutions of EGTA/trypsin and antibiotics were from GIBCO; fetal bovine serum was from Hyclone Laboratories (Logan, Utah). […]
(§2) cAMP Stimulation. […] The cAMP content of the diluted lysate was determined by radioimmunoassay. The EC50 response values were calculated using nonlinear regression (see below).
(§3) Data Calculation. […] Differences between paired data sets were statistically evaluated using a one-tailed Student's t-test, assuming unequal variances for the two sets.
(§4) The peptide PTH(1-34)([Tyr^34]hPTH(1-34)NH2)(SEQ. ID. NO. 11) and analogs containing the indicated residues at positions 6 and/or 10 were evaluated for the capacity to stimulate cAMP accumulation in COS-7 cells transiently transfected with either the wild-type P1R(P1R-WT) or P1R-DelNt. […]

wild-type human P1R = target: T2, wild-type human P1R (Homo sapiens, UniProt Q03431); experiment: cAMP stimulation in COS-7 cells transiently transfected with P1R-WT
T2 construct: expressed in transfected cells; host or cells: COS-7 (transient transfection, FuGENE 6)
T2 sequence (Q03431 27-593): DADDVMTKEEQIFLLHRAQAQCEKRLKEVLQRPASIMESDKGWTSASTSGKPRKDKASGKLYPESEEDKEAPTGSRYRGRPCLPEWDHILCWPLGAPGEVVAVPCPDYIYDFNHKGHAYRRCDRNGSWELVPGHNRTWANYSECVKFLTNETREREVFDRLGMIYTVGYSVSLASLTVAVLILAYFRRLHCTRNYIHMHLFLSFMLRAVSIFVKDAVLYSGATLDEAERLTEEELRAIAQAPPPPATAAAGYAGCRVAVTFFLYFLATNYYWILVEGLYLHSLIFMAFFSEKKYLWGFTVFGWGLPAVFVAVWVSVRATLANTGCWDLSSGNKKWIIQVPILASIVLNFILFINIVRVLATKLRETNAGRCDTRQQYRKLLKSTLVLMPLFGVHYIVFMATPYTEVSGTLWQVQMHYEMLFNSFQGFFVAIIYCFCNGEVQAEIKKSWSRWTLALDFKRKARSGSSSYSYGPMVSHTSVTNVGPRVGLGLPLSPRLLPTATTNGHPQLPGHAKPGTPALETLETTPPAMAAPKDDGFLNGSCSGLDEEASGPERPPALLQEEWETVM
Experimental: as §1, §2, §3, §4

[2] = target: T3, recombinant full-length P1R (Homo sapiens, UniProt Q03431); experiment: cAMP stimulation in HKRK-B28 cells
T3 construct: expressed in transfected cells
T3 sequence (Q03431 27-593): T2 sequence (Q03431 27-593)
Experimental: as §1, §2, §3
The effects of installing a direct covalent linkage between the side chains of the residues at positions 6 and 10 on PTH analog function were also assessed. […]

## CC[C@H](C)[C@H](NC(=O)[C@H](CCC(=O)O)NC(=O)[C@H](CO)NC(=O)[C@@H](NC(=O)[C@@H](N)CO)C(C)C)C(=O)N[C@@H](CCC(N)=O)C(=O)N[C@@H](CC(C)C)C(=O)N[C@@H](CCSC)C(=O)N[C@@H](Cc1c[nH]cn1)C(=O)N[C@@H](CC(N)=O)C(=O)N[C@@H](CC(C)C)C(=O)NCC(=O)N[C@@H](CCCCN)C(=O)N[C@@H](Cc1c[nH]cn1)C(=O)N[C@@H](CC(C)C)C(=O)N[C@@H](CC(N)=O)C(=O)N[C@@H](CO)C(=O)N[C@@H](CCSC)C(=O)N[C@@H](CCC(=O)O)C(=O)N[C@@H](CCCNC(=N)N)C(=O)N[C@H](C(=O)N[C@@H](CCC(=O)O)C(=O)N[C@@H](Cc1c[nH]c2ccccc12)C(=O)N[C@@H](CC(C)C)C(=O)N[C@@H](CCCNC(=N)N)C(=O)N[C@@H](CCCCN)C(=O)N[C@@H](CCCCN)C(=O)N[C@@H](CC(C)C)C(=O)N[C@@H](CCC(N)=O)C(=O)N[C@@H](CC(=O)O)C(=O)N[C@H](C(=O)N[C@@H](Cc1c[nH]cn1)C(=O)N[C@@H](CC(N)=O)C(=O)N[C@@H](Cc1ccc(O)cc1)C(N)=O)C(C)C)C(C)C [PTH(1-34) (SEQ. ID. NO. 10), [Tyr^34]hPTH(1-34)amide]
[1]
  Emax: 44 ± 2%
wild-type human P1R; COS-7, at 1×10^−6M, percent of maximum response of PTH(1-34) on P1R-WT
  Emax at 1 µM: 100 ± 1%
wild-type human P1R; COS-7 cells, P1R-WT
  maximum cAMP response observed: 294±15 pM per well
[2]; PTH(1-34)
  maximum cAMP response observed: 416±51 pM per well
[2]; at 1×10^−6 M, percent of maximum response of PTH(1-34)
  Emax at 1 µM: 100 ± 5%
